Measurements published in patent publication EP4825847A1, “NMDA RECEPTOR ANTAGONIST AND USE THEREOF” (dated 2026).
Where a name gives a salt, the structure may show the parent alone.

Columns and labels:
C57BL/6J male mice [1] = experiment: Toxicity test of compounds (non-toxic dose exploration, epilepsy-like behavior score); settings: i.p.; for NOAEL dosage (mg/kg) (score 0) / Minimum toxic dose (mg/kg) (score 1): about one hour observation; for NOAEL dosage (mg/kg) (score 0): epilepsy-like behavior score 0; for Minimum toxic dose (mg/kg) (score 1): epilepsy-like behavior score 1
Protocol: The exploration test of non-toxic dose of the compound is an important index to evaluate the safety of the compound. High safety will bring a higher treatment window. The animal information was the same as that in Test Example 2.
• 1. The test was carried out in a quiet environment. The animals were weighed and acclimated in the test chamber for at least 30 min before the test. • 2. The compound to be tested was dissolved in 0.9% physiological saline, and the corresponding volume of the compound was intraperitoneally injected (i.p.) according to the weight of mice. The dosage was the target dosage of administration. The number of animals in each group was 2 or 3. • 3. The mice after administration were placed in a transparent observation chamber, and the behavior changes of the mice were video recorded and observed for about one hour. (Note: During the observation period, if the mouse was lying still, the mouse was turned over by hand, and whether the righting reflex (RR) of the mouse disappeared was checked. If disappeared, the mouse was in an anesthetic state, and the time of anesthesia of the mouse was recorded). • 4. After the one-hour observation, the mice were returned to the rearing cage. The observation chamber was wiped with 75% alcohol, to avoid the influence of the information left by animals in the last round (such as the smell of animals' feces and urine) on the next test result. The next round of animals were changed to continue the test.
Table C. Epilepsy-like behavior rating scale for rodents

C57BL/6J male mice [2] = experiment: Pre-pulse inhibition test; settings: 45 mg/kg; pre-pulse level of 67 dB and 70 dB
From the text: Pre-pulse inhibition phenomenon is an important parameter to evaluate the sensorimotor gating function, and an index to evaluate schizophrenia-like behavior. This phenomenon means that a weak stimulus occurring before a strong stimulus will reduce the degree of animal response to the strong stimulus. In the present invention, the PPI test was used to evaluate whether the compound could induce psychotomimetic-like behavior in mice.
The animal information was the same as that in Test Example 2. The number of animals in each group (N) was 10, and the administration mode was intraperitoneal injection or oral administration (p.o.). The dosage of S-ketamine was 20 mg/kg, the dosage of other compounds was 45 mg/kg, and the administration volume was 10 mL/kg. The dosage for oral administration was 10 mg/kg.
Test process: The test was carried out in a quiet environment. The mice were weighed and acclimated in the test chamber for at least 30 min before the test. The PPI test was divided into four stages, including: acclimation stage, Block 1, Block 2, and Block 3. At the beginning of the test, the mice were given corresponding doses of solvent (control group) or test compound according to their body weight. Then the mice were placed in a startle response chamber and allowed to acclimate for 5 min without stimulation. Then in Block 1-3, the mice were given startle stimuli of varying decibel intensities. In Block 1 and Block 3, 10 trials were set, and each trial had no pre-pulse stimuli. The startle stimulus was set to be white noise of 120 dB. The time interval between trials varies randomly from 10 to 15 sec. Block 2 was set to have 56 trials. There were three types of stimuli: (1) a continuous startle stimulus of 120 dB was given in 8 trials; (2) a pre-pulse stimulus of 67, 70, 73, or 76 dB was given first and then a startle stimulus of 120 dB was given in 32 trials, and only pre-pulse stimulus (two trials for each of the four pre-pulse stimuli) was given in 8 trials; and (3) no stimulus was given in 8 trials, and the duration was 200 ms. The duration of pre-pulse stimulus was 20 ms, and the fixed interval was 100 ms. The duration of startle stimulus in all Block was 40 ms, and the background noise was set to 62dB. The instrument was wiped with 75% alcohol after each test, to avoid the influence of the information left by animals in the last round (such as the smell of animals' feces and urine) on the next test result. The difference was analyzed by unpaired t-test to have statistical significance, where P<0.05 means that there was a significant difference. ^# P<0.05, * P<0.05, ** P<0.01, *** P<0.001. […] Compound 2SS mesylate tends to cause loss of PPI at a pre-pulse level of 67 dB and 70 dB. Compound 2RR mesylate causes loss of PPI at a pre-pulse level of 76 dB. […]

C57BL/6J male mice [3] = experiment: Forced swimming test; settings: for 1-h inhibition rate: immobility time 1 hr after administration
Protocol: Test animals: C57BL/6J male mice aged 10-12 weeks were purchased from Speifu (Suzhou) Biotechnology Co., Ltd. The animals arrived at the test center before the test and acclimated in the feeding room for more than 7 days. 5 animals per cage was bred at a temperature of 23-24°C, under a 12-hr light/12-hr dark cycle. Before the behavioral test, the animals were taken to the behavioral test chamber 1 hour in advance, to acclimate to the environment.
Forced swimming test is a standard behavioral test to evaluate the depressive behavior of rodents. […] It is generally accepted that this behavioral despair is similar to the depressive symptoms in humans. The objective of this test was to evaluate the antidepressant efficacy of the compound of the present invention in C57 mice.
In the FST test, the number of animals in each group (N) was 15, the administration mode was intraperitoneal injection (i.p.) or oral gavage (p.o.), the dosage of administration was 5, 10 or 20 mg/kg (depending on the experimental needs), and the volume of administration was 10 mL/kg. The vehicle was 0.9% physiological saline.
Test process: 1. The test was carried out in a quiet environment. The animals were weighed and acclimated in the test chamber for at least 30 min before the test.
2. The compound to be tested was dissolved in 0.9% physiological saline, and the corresponding volume of the compound was given by intraperitoneal injection (i.p.) or oral gavage (p.o.) according to the weight of mice and used as the test group. 0.9% physiological saline was used as the control group, and the dosage was the target dosage of administration. The administration process was double-blinded administration.
3. 1 hr after administration, the mice were placed in a transparent plexiglass water tank with a diameter of 15 cm and a height of 30 cm, in which water was injected to a height of about 15 cm, and the water temperature was 23-25°C. The total recording time was 6 min.
4. The immobility time of mice within later 4 min was analyzed, with which the degree of helplessness and despair of mice was reflected.
5. The immobility time of mice between the administration group and the control group was compared, and the antidepressant activity (1-h inhibition rate) of the compound to be tested was analyzed. The difference was analyzed by unpaired t-test to have statistical significance, P<0.05 means that there was a significant difference. * P<0.05, **P<0.01, ***P<0.001. [formula]

C57BL/6J male mice [4] = experiment: Open field test of mice; settings: intraperitoneal administration of 10 mg/kg; compared with the vehicle group
From the text: Open field test is a standard behavioral method to evaluate the voluntary movement behavior and the exploratory behavior, which is widely used in the research of neurological and psychiatric diseases such as depression, anxiety, Parkinson's disease and screening of drugs acting on central nervous system.
Due to the limited tests to evaluate the hallucinogenic effect of NMDAR antagonists, the open field test is used in the present invention to evaluate whether the compound affects the spontaneous locomotor activity of mice and also used to indirectly evaluate whether the compound has hallucinogenic effect. Furthermore, the increase of spontaneous locomotor activity of mice is also considered as one of the positive symptoms of schizophrenia. Therefore, the open field test can also be used to evaluate whether the compound has the psychotomimetic-like side effects.
The animal information was the same as that in Test Example 2. The number of animals in each group (N) was 10, the administration mode was intraperitoneal injection or oral administration, the dosage of administration was 5 or 10 mg/kg, and the volume of administration was 10 mL/kg.
Test process: The open field test chamber was a soundproof chamber made of opaque plexiglass and having an inner diameter of 40*40*40 cm, and the analysis software was purchased from Noldus (Ethovision XT 11.5). The test was carried out in a quiet environment. The animals were weighed and acclimated in the test chamber for at least 30 min before the test. Before the test, the software EthoVision XT 11.5 was set, the wild-type mice were placed at the center of the bottom of the chamber, and the activity within 30 min or 20 min was recorded as the baseline. After 30 min, the mice were taken out and given corresponding doses of solvent (control group) or test compound according to their body weight. Immediately after administration, the mice were placed in the same observation chamber as that in the baseline stage, and their activities within 40 min after administration were recorded. The instrument was wiped with 75% alcohol after each test, to avoid the influence of the information left by animals in the last round (such as the smell of animals' feces and urine) on the next test result. The next round of animals were changed to continue the test. After the test, data were collected for statistical analysis. The difference was analyzed by unpaired t-test to have statistical significance, where P<0.05 means that there was a significant difference. ^# P<0.05, * P<0.05, **P<0.01, ***P<0.001, **** P<0.0001. After the test, the distance (cm) traveled by the mice in the control and test compound groups every 5 min was statistically analyzed. 33 to 36.

[5] = Pharmacokinetic test in mice
Protocol: The test was to investigate the pharmacokinetic characteristics of the compound of the present invention in C57BL/6J male mice after oral administration (oral gavage) and intravenous injection.
Male C57BL/6J mice aged 10-12 weeks were given the solution of the compound by intravenous injection (i.v.) and oral administration (p.o.) respectively. The vehicle for intravenous injection was 0.9% physiological saline for injection. The administration dosage volume was 5 mL/kg. The animals were allowed to normal access to food and water before administration. The vehicle for oral administration was 0.9% physiological saline for injection. The administration dosage volume was 10 mL/kg. The animals were fasted for 16 hrs before administration. 0.0333, 0.1667, 0.3330, 1, 2, 4, 6, 8, 24 hrs after administration, about 70 µL of blood was collected from the facial veins of the two groups of animals, transferred to an anticoagulant tube with EDTA-K2, placed on ice, and then centrifuged at 4 Celsius degrees in 1 hr to separate the plasma (4500 g, 15 min). The drug concentration was analyzed by LC-MS/MS, and the related pharmacokinetic parameters were calculated through the linear-log trapezoidal method by non-compartmental analysis using PKSolver2.0 kinetic software.

[6] = Solution stability: purity of the solution over 24 hrs in the solubility test
Protocol: The solubilities of different forms of the compounds in media with different pH values were tested. The compound sample was weighed into a glass flask, and 1 mL or 2 mL of phosphate buffer pH=6.0, pure water, phosphate buffer pH=8.0, and/or 0.9% physiological saline respectively was added respectively, and magnetically stirred at 20°C for 24 hrs. A sample was taken for solubility test, and the purity of the solution over 24 hrs was tested. Table 18: Solubility test results of different crystal forms of the salts of Compound 2 in media with different pH values

[7] = Solid stability test (purity, crystal form, appearance on storage)
Protocol: Crystal Form A of the hydrochloride, Crystal Form B of the phosphate, and Crystal Form C of the mesylate of Compound 2 and Crystal Form G of the hydrochloride, Crystal Form I of the phosphate, and Crystal Form J of the mesylate of Compound 3 were respectively packaged and stored at an acceleration condition of 40°C/75% RH, a routing condition of 25°C/60% RH, and a high-temperature condition of 60°C, and the purity, crystal form, and appearance of the compounds were evaluated at different times. Table 20. Solid stability test results of Crystal Form A of Compound 2 hydrochloride

[8] = Intravenous administration, 1 mg/kg

SMILES: Clc1cccc([C@@]23CCCC[C@@H]2OCCN3)c1
- NOAEL dosage (mg/kg) (score 0) (C57BL/6J male mice [1]): 25 mg/kg
- Minimum toxic dose (mg/kg) (score 1) (C57BL/6J male mice [1]): 35 mg/kg
- PPI (C57BL/6J male mice [2]): tends to cause loss of PPI

SMILES: c1ccc([C@@]23CCCC[C@@H]2OCCN3)cc1
- antidepressant effect (C57BL/6J male mice [3]; 10 mg/kg p.o.): significant antidepressant effect
- 1-h inhibition rate (C57BL/6J male mice [3]; p.o., 20 mg/kg): 42.8%
- NOAEL dosage (mg/kg) (score 0) (C57BL/6J male mice [1]): 20 mg/kg
- Minimum toxic dose (mg/kg) (score 1) (C57BL/6J male mice [1]): 40 mg/kg
- STD10 (mg/kg) (score 8) (C57BL/6J male mice [1]; dose at which 10% of the animals have severe toxic reaction, score 8): 250 mg/kg
- distance traveled by the mice (C57BL/6J male mice [4]): no significant difference
- AUC0-last [5, 8]: 241 ng·h/mL
- Cl [5, 8]: 68 mL/min/kg
- Bioavailability (F%) ([5]; Oral administration 20 mg/kg vs i.v. 1 mg/kg): 40%
- AUC0-last ([5]; Oral administration, 20 mg/kg): 1951 ng·h/mL
- T1/2 ([5]; Oral administration, 20 mg/kg): 1.02 h

SMILES: Clc1ccccc1[C@@]12CCCC[C@H]1OCCN2 [Crystal Form G of Compound 3 hydrochloride]
- antidepressant effect (C57BL/6J male mice [3]; 10 mg/kg i.p.): obvious antidepressant effect
- antidepressant effect compared with the isomer compounds 3-SS hydrochloride, 3-RR hydrochloride and 3-RS hydrochloride (C57BL/6J male mice [3]; 10 mg/kg i.p.): significantly better
- 1-h inhibition rate (C57BL/6J male mice [3]; i.p., 10 mg/kg): 24.0%
- Purity (24 h) ([6]; solution in Phosphate buffer pH=6.0, 24 h): 99.89%
- Purity (24 h) ([6]; solution in Phosphate buffer pH=8.0, 24 h): 99.56%
- Purity (24 h) ([6]; solution in Pure water pH=6.8, 24 h): 99.95%
- solution stability ([6]; summary in words): good
- Appearance ([7]; 0D): Dry white solid powder
- Crystal Form ([7]; 0D): Crystal Form G
- Purity ([7]; 0D): 99.97%
- Appearance ([7]; 40°C/75% RH, 7D): White solid powder
- Crystal Form ([7]; 40°C/75% RH, 7D): Crystal Form G
- Purity ([7]; 40°C/75% RH, 7D): 99.98%
- Appearance ([7]; 60°C, 7D): White solid powder
- Crystal Form ([7]; 60°C, 7D): Crystal Form G
- Purity ([7]; 60°C, 7D): 99.99%
- distance traveled by the mice (C57BL/6J male mice [4]): no significant difference
